The source made the active and inactive calls.
How the values were obtained:
Type in all cases: functional, cell-based
LX-2 [1] = assay: Antifibrotic activity against human LX-2 cells overexpressing human Adenosine receptor A2a assessed as downregulation of PKA phosphorylation at Thr197 residue at 10 uM incubated for 18 hrs by Western blotting analysis
LX-2 [2] = assay: Antifibrotic activity against human LX-2 cells overexpressing human Adenosine receptor A2a assessed as downregulation of fibronectin expression at 10 uM incubated for 18 hrs by Western blotting analysis
LX-2 [3] = assay: Antifibrotic activity against human LX-2 cells overexpressing human Adenosine receptor A2a assessed as downregulation of alpha-SMA expression at 10 uM incubated for 18 hrs by Western blotting analysis
LX-2 [4] = assay: Antifibrotic activity against human LX-2 cells overexpressing human Adenosine receptor A2a assessed as downregulation of COL1A1 expression at 10 uM incubated for 18 hrs by Western blotting analysis

Measured: Activity

Nc1nc(NCCc2ccc(O)cc2)nc2nc(-c3ccco3)nn12
active: all assays above

CNc1nc(C#Cc2ccccc2)nc2c1ncn2COCc1ccccc1
active: all assays above
